Measured values published in PMC6404402, “Design of indole- and MCR-based macrocycles as p53-MDM2 antagonists” (Beilstein Journal of Organic Chemistry, 2019).

Experiments:
[1] = biological target: human MDM2 (residues 1-118) (Homo sapiens, UniProt Q00987); assay: Fluorescence polarization (FP) competition binding assay; conditions: read-out: Ki MDM2; FP competition with 10 nM 5'FAM-LTFEHYWAQLTS (P2); MDM2 (1–118) at concentration yielding f0 = 0.8; 50 mM NaCl, 10 mM Tris pH 8.0, 1 mM EDTA, 5% DMSO; 15 min after mixing; room temperature; 485 nm excitation, 535 nm emission; n.a. = no activity against MDM2 protein
[2] = biological target: 15N-labeled MDM2 (N-terminal domain of human MDM2, residues 1-118) (Homo sapiens, UniProt Q00987); assay: 1H,15N HSQC NMR titration of 15N-labeled MDM2; format: binding; conditions: read-out: Kd MDM2; 1H,15N HSQC titration, 7–9 ligand/protein ratios 0 to 5; 0.20–0.35 mM 15N MDM2; 50 mM phosphate pH 7.4, 150 mM NaCl, 5 mM DTT, 10% D2O; 300K; 50 mM ligand stock in DMSO; weighted mean of KD's of most perturbed residues in fast chemical exchange

CC(C)(C)NC(=O)C(c1c[nH]c2cc(Cl)ccc12)N1CCCCCCCCCCNC(=O)COCC1=O (stereo not shown)
Ki [1]: 5.49 µM
Kd [2]: 4.8 µM

CC(C)(C)NC(=O)C(c1c[nH]c2cc(Cl)ccc12)N1CCCCCCCCNC(=O)COCC1=O (stereo not shown)
Ki [1]: 2.25 µM
Kd [2]: 12.1 µM
